Experimental data reported in paper PMC4535769, “The Carboxy Terminus of the Ligand Peptide Determines the Stability of the MHC Class I Molecule H-2K^b: A Combined Molecular Dynamics and Experimental Study” (PLoS ONE, 2015).

By UniProt entry, the sequences of proteins in these tests, tags left out. Residues count along the entry.
UniProt P01901, 22-305 limits assumed: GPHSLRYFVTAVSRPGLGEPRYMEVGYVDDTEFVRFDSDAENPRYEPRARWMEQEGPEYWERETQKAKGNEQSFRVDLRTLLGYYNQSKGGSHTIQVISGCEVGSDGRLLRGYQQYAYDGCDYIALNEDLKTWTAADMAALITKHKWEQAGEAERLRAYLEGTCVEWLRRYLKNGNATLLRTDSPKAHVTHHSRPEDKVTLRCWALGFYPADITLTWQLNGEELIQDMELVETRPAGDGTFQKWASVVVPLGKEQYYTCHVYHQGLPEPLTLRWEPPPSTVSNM

Molecular target: T1, K^b/β2m (Mus musculus, UniProt P01901)
T1 construct: The TDTF analysis was performed on the luminal domain of K^b, which was produced in E.coli; made in house
Assay: Competitive binding against SIINFEKTAMRAL measured by fluorescence anisotropy (IC50)
Parameters: species or system murine
Experimental: Steady state measurements were performed with peptide-free folding reactions of K^b/β2m.
K^b was folded empty and then incubated with different concentrations of each peptide variant for five minutes. Then, the index peptide SIINFEKTAMRAL (fluorescently labeled on the lysine side chain) was added as a competitor, and the endpoint of its binding was measured by fluorescence anisotropy. From theory curves fitted to the data, we calculated the half-maximal concentration of inhibition of SIINFEKTAMRAL binding (IC50) for each modified peptide (Fig 6, S1F Fig).
Fig 6 Half-maximal concentration of peptide (IC50) required to inhibit the binding of the high affinity peptide SIINFEKTAMRAL. K^b/β2m complexes derived from the […] (B) structures were folded empty and then incubated for 5 minutes with different concentrations of full-length, truncated, or modified peptides. […] Binding curves (left) are of one representative experiment, and the IC50 values (right) are the average of three experiments.

In the case of `C[C@H](NC(=O)[C@H](C)NC(=O)[C@@H]1CCCN1C(=O)[C@H](Cc1ccc(O)cc1)NC(=O)[C@H](CC(N)=O)NC(=O)CNC(=O)[C@@H]1CCCN1C(=O)[C@H](C)NC(=O)[C@@H](N)Cc1ccccc1)C(=O)O`, the IC50 is reported as 220 nM.
